Measured values reported in patent publication EP4843989A1, “POLYCYCLIC COMPOUND, PHARMACEUTICAL COMPOSITION THEREOF, AND USE THEREOF” (dated 2026).

The chains behind the UniProt entries cited, without tags or fusion partners.
UniProt Q13546, whole entry: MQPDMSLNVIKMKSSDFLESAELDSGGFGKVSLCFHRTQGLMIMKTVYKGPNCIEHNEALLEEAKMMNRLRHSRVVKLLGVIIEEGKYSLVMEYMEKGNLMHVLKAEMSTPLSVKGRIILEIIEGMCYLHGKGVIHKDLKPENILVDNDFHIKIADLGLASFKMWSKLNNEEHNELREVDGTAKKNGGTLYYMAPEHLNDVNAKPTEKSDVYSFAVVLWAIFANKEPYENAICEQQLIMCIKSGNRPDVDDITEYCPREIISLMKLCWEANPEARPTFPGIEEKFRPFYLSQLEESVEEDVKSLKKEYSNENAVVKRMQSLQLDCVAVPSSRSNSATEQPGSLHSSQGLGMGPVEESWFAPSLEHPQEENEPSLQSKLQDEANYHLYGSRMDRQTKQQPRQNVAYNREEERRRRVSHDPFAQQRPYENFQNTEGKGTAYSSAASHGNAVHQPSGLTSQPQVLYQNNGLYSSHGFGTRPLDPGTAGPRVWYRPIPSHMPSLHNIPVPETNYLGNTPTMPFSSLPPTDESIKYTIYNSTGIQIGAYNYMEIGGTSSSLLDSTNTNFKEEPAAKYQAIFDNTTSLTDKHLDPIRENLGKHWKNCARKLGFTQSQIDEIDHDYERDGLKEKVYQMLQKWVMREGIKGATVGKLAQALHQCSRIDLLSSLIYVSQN

Experiments:
L929 cells = assay: TNFα-induced L929 cell death recovery, CTG readout (Testing Example 1); conditions: read-out: TNFα+Z L929-CTG-recoveny IC50, method: 10 ng/mL TNFα and 40 nM SM-164, 24 hours
human Ripk1 = human Ripk1 (Homo sapiens, UniProt Q13546); assay: Promega ADP-Glo kinase assay of Ripk1 enzymatic activity (Testing Example 2); conditions: read-out: ADP GLO IC50; human Ripk1 1.25 ng/µL, substrate MBP, ATP 12.5 µM, 3 hours at room temperature
U937 cells = assay: TNFα-induced U937 cell death recovery, CTG readout (Testing Example 1); conditions: read-out: TNFα+Z U937-CTG-recoveny IC50, 100 ng/mL TNFα and 25 µM Z-VAD, 24 hours

IC50 (human Ripk1) | SMILES | IC50 (L929 cells) | IC50 (U937 cells)
130 nM | CN1C(=O)[C@@H](N2CCc3c(nn4c3CC[C@H]4c3ccccc3)C2=O)COc2ccc(C#CC3CC3)cc21 | 7 nM | –
– | CN1C(=O)[C@@H](NC(=O)c2n[nH]c(Cc3ccccc3)n2)COc2ccccc21 | 2000 nM | 3 nM
